“Also recorded” adds a separate entry of the source.

This assay relates to SRC family kinases (p-SFK). Nature of the assay: SFK phosphorylation, Western blot in NCI-H2286 and HCC-366. The settings on record: NCI-H2286 and HCC-366, 3 h, 0.5 μM. The assay is classed as cell-based. (In western blotting, separated proteins are transferred to a membrane and probed.)

On to `Cc1nc(Nc2ncc(C(=O)Nc3c(C)cccc3Cl)s2)cc(N2CCN(CCO)CC2)n1` [Dasatinib], for which the “effect on p-SFK” value is “robust decrease in p-SFK; also recorded: potent inhibition”.

For the origin of these results see PMC4685943 (ACS Chemical Biology, 2015).
